Paper PMC3212511

The chains behind the UniProt entries cited, without tags or fusion partners.
UniProt P17661, whole entry: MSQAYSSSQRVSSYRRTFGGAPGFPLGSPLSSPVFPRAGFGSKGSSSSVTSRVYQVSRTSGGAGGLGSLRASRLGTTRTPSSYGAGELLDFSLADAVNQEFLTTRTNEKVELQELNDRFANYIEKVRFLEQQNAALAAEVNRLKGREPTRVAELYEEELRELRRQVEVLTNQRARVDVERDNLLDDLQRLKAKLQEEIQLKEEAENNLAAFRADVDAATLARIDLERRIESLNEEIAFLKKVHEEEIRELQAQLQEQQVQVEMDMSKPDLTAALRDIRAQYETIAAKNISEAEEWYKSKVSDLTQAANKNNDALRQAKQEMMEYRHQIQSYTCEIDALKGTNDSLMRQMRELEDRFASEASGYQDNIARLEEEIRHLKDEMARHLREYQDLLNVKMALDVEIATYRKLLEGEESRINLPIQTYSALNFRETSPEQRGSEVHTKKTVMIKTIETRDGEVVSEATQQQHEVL

Target: human desmin (assembled into filaments in vitro) (human) (UniProt P17661)
Test: co-sedimentation; high-speed assay: desmin 0.2 g/l co-assembled with αB-crystallin 0.08 g/l at 44°C (20 mM Tris-HCl pH7.4, 50 mM NaCl, 16 h); 80,000 g, 30 min, 4°C through a 0.85 M sucrose cushion; SDS-PAGE densitometry of pellet and supernatant

Row | Substance | % of αB-crystallin in the high-speed pellet with desmin
1 | CEβ8 αB-crystallin (β8-strand of human αB-crystallin substituted with that of C. elegans HSP12.2) | > 95%
2 | Δ155–165 αB-crystallin (human αB-crystallin with C-terminal residues 155–165 deleted) | > 95%
